The subject of this experiment is MDA-MB-468 breast. Kind of experiment: inhibition of tumour cell growth, NCI panel, 48 h.

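Five compound concentrations were applied to cells in 96-well plates for 48 hours; endpoints were derived by simple linear interpolation of the resulting dose-response curve. Here, GI50 denotes the concentration required for 50% inhibition of growth. At the TGI there is no net growth.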 A value given as a limit tells only on which side of the number the result lay.

On to `O=C(Nc1cc([As](=O)(O)O)ccc1O)c1ccccc1`, for which the GI50 is over 100 µM and the TGI is over 100 µM.

For the origin of these results see PubChem BioAssay (NCI).
